Literature values in patent publication US4448717A, “Pharmacologically active peptides” (Eli Lilly and Company, priority 1982, dated 1984).

System: mice
Details: cited from earlier work

Q: For “H-Tyr-Gly-Gly-Phe-Leu-OH [leucine enkephalin]”, which “analgesic activity when administered parenterally” value is on record?
A: practically devoid of any useful analgesic activity
